Where “and” joins values, the source holds several entries; their conditions need not be identical. Identical values can stand only once. Only a part is listed here, and it is no random draw. Inconclusive results are not listed. Calls of active or inactive are those of the source. The call rests on the fitted dose curve; in most records, active means well fitted activation curve with a large enough effect in the repeat runs; inconclusive means weak or mixed curves; inactive means flat fitted curve, though single readings scatter.
On the % scale 0 is the no-effect control and ±100 the full control effect.

The nature of one assay: Caspase-3/7 induction in HepG2 cells by small molecules, qHTS assay (AID 1346978). Further: nearly all actives have a fitted effect of over 15% in size. To be noted: HepG2 caspase-3/7 activation, Caspase-Glo luminescence, 17 h; at 42.5 µM (top of the series). From the text:
National Center for Advancing Translational Sciences [NCATS] NIH Chemical Genomics Center [NCGC] U.S. Environmental Protection Agency [EPA] National Institutes of Environmental Health Sciences [NIEHS] National Toxicology Program [NTP] Assay overview: Apoptosis is a process of programmed cell death and plays a central role in the development of multicellular organisms. It is a highly regulated process and induces cell death by activating caspases, which are the members of cysteine aspartic acid-specific protease (caspase) family. Caspases involved in apoptosis are classified by their mechanism of action as initiator caspases (caspase-2, -8, -9 and -10) and executioner caspases (caspase-3, -6, and -7). Inhibition of apoptosis results in number of cancers, autoimmune diseases, inflammatory diseases and viral infection. To identify small molecule compounds that induce apoptosis, a homogeneous, luminescent Caspase-Glo 3/7 assay was used. Wild type HepG2 cells were used to screen Tox21 libraries for identifying caspase-3/7 activity inducers.
Assay Protocol Summary: HepG2 cells were dispensed at 2,000 per well in 5uL of culture medium into white solid bottom 1536-well plates (Corning Life Sciences, Corning, NY) using a Multidrop Combi (Thermo Scientific, Waltham, MA) dispenser. The assay plates were incubated at 37 C and 5% CO2 for 5hr, and then 23nL of compounds dissolved in DMSO and positive control were transferred using a Pintool station (Wako, San Diego, CA). The assay plates were incubated at 37C and 5% CO2 for 17hr. For caspase-3/7 activity read, 4uL of Caspase-Glo 3/7 reagent (Promega Corporation, Madison, WI) was added to each well of the assay plates using Flying Reagent Dispenser (FRD, Aurora Discovery, San Diego, CA) and incubated the assay plates at room temperature for 30min. The luminescence signal was quantified using a ViewLux plate reader (Perkin Elmer, Shelton, CT).
On to `NC(=O)Nc1ccc([As](=O)(O)O)cc1`, for which the caspase activation is inactive: 0.846%.

The assay is the same for the next values; noted with them: HepG2 caspase-3/7 activation, Caspase-Glo luminescence, 17 h; at 92.4 µM (top of the series).
Consider `NC(=O)Nc1ccc([As](=O)(O)O)cc1`, for which the caspase activation is inactive: -3.61%.

The same assay, now with this note: HepG2 caspase-3/7 activation, Caspase-Glo luminescence, 17 h; at 92.4 µM (top of the series) unless noted.
For the compound `COP(=S)(Cl)OC`, the caspase activation is inactive: 0.5%. With `Cc1cc([N+](=O)[O-])cc([N+](=O)[O-])c1O`, the caspase activation was inactive: -9.98% and inactive: -9.9%. Same read-out and setting: with `O=[N+]([O-])c1ccc(S(=O)(=O)O)c([N+](=O)[O-])c1` the figure was inactive: 0.512%; with `CC(C)OP(=S)(OC(C)C)SCCNS(=O)(=O)c1ccccc1`, inactive: -3.85%.

`CN(C(=O)Cc1cccc2occc12)[C@H]1CC[C@@]2(CCCO2)C[C@@H]1N1CCCC1`: the caspase activation was inactive: 0.0367%.

With `O=[p+]1oc2ccccc2c2ccccc21` (centres undefined), the caspase activation is inactive: -0.451%. With `O=[P+](Oc1ccccc1)Oc1ccccc1`, the caspase activation was inactive: -0.252%. On to `O=C(Cl)Oc1ccccc1`, for which the caspase activation was inactive: 2.02%.

`CCCCO[P+](=O)OCCCC`: the caspase activation was inactive: -1.3% and inactive: 0.812%.

On to `CN(N=O)C(=N)N[N+](=O)[O-]`, for which the caspase activation is inactive: 0.963%. For the compound `CCNC(C)Cc1ccc2c(c1)OCO2` (centres undefined), the caspase activation is inactive: -1.07%. With `CN(C(=O)Cc1ccc(Cl)c(Cl)c1)[C@H]1CC[C@@]2(CCCO2)C[C@@H]1N1CCCC1`, the caspase activation was inactive: 0.994% [at 42.5 µM]. Take `CCOP(=S)(CC)Sc1ccccc1` (centres undefined): the caspase activation was inactive: -2.15%. Take `O=[N+]([O-])c1ccc([N+](=O)[O-])cc1`: the caspase activation was inactive: -8.6%. Consider `CCOC(=O)Cl`, for which the caspase activation was inactive: -1.01%.

On to `O=[As]c1ccccc1` (centres undefined), for which the caspase activation is inactive: -18.2%.

For the compound `CN(C(=O)Cc1ccccc1)[C@H]1CC[C@@]2(CCCO2)C[C@@H]1N1CCCC1`, the caspase activation was inactive: 2.7% [at 42.5 µM]. As for `CCCCC(CC)CO[P+](=O)OCC(CC)CCCC` (centres undefined), the caspase activation is inactive: -1.15%.

As to `CCC(C)(OOC(C)(C)C)OOC(C)(C)C`, the caspase activation is inactive: -0.0069% [at 19 µM]. As to `CCCCOP(OCCCC)OCCCC`, the caspase activation was inactive: -1.25%. On to `O=C(Cl)OCCOC(=O)Cl`, for which the caspase activation was inactive: 0.24%. In the case of `O=P(Cl)(Oc1ccccc1)Oc1ccccc1`, the caspase activation was inactive: -0.102%.

For `COC(=O)Cl`, the caspase activation was inactive: 0.204%. With `CC(C)CCCCCCCOP(OCCCCCCCC(C)C)Oc1ccccc1`, the caspase activation is inactive: -0.316%. Take `O=P(Cl)(Cl)c1ccccc1`: the caspase activation was inactive: -0.104%. Still for that read-out and setting: the figure for `Cc1cc([N+](=O)[O-])c(O)c([N+](=O)[O-])c1` is inactive: 2.11%; for `ClP(Cl)c1ccccc1` it is inactive: 2.23%.
